# Permeability data for macrocyclic peptides

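Lipid, pH, incubation time, direction and concentration are not recorded in the data file. The list need not hold all peptides of the study. Peptides that the database sets to -10, its floor, are left out.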

PAMPA is the parallel artificial membrane permeability assay, which has no cells and reads passive diffusion. P is given in units of 10^-6 cm/s (from log10 values with two decimals); larger means faster passage.

* CC(C)C[C@@H]1NC(=O)[C@@H](CC(C)C)NC(=O)[C@@H](C)N(C)C(=O)[C@@H]2CCCN2C(=O)[C@H](Cc2ccccc2)NC(=O)[C@H](CC(C)C)N(C)C(=O)[C@H]2CCCN2C1=O: PAMPA 5.8 × 10^-6 cm/s
* CC(C)C[C@H]1NC(=O)[C@H]2CCCN2C(=O)CN(Cc2ccccc2)C(=O)[C@@H](CC(C)C)NC(=O)C[C@H](Cc2ccccc2)NC(=O)[C@H](Cc2ccccc2)NC1=O: PAMPA 5 × 10^-6 cm/s
* CC(C)C[C@@H]1NC(=O)[C@@H]2CCCN2C(=O)C[C@H](Cc2ccccc2)NC(=O)[C@@H](CC(C)C)NC(=O)C[C@H](Cc2ccccc2)NC(=O)[C@@H]2CCCN2C(=O)[C@H](Cc2ccccc2)NC1=O: PAMPA 1.7 × 10^-6 cm/s
* CC(C)C[C@@H]1NC(=O)[C@H]2CCCN2C(=O)[C@@H](CC(C)C)N(C)C(=O)[C@@H](CC(C)C)NC(=O)C[C@H](Cc2ccccc2)NC(=O)[C@H](Cc2ccccc2)NC1=O: PAMPA 1.7 × 10^-6 cm/s
* CC(C)C[C@H]1NC(=O)[C@H](C)N(C)C(=O)[C@H](Cc2ccccc2)NC(=O)CN(Cc2ccccc2)C(=O)[C@@H]2CCCN2C(=O)[C@H](CC(C)C)N(C)C1=O: PAMPA 10 × 10^-6 cm/s
* CCCN1CC(=O)N[C@@H](CC(C)C)C(=O)N(C)[C@@H](CC(C)C)C(=O)N2CCC[C@H]2C(=O)N(Cc2ccccc2)CC(=O)N[C@@H](Cc2ccccc2)C(=O)N2CCC[C@@H]2C1=O: PAMPA 6.3 × 10^-6 cm/s
* CC(C)C[C@@H]1NC(=O)[C@H](C)N(C)C(=O)[C@@H]2CCCN2C(=O)[C@H](Cc2ccccc2)NC(=O)[C@@H](CC(C)C)N(C)C(=O)[C@@H]2CCCN2C(=O)C[C@H](Cc2ccccc2)NC1=O: PAMPA 1.3 × 10^-6 cm/s
* CC(C)C[C@@H]1C(=O)N(C)[C@H](CC(C)C)C(=O)N2CCC[C@@H]2C(=O)N(Cc2ccccc2)CC(=O)N[C@@H](Cc2ccccc2)C(=O)N[C@@H](C)C(=O)N1C: PAMPA 7.9 × 10^-6 cm/s
* CC(C)C[C@@H]1C(=O)N2CCC[C@@H]2C(=O)N(C)[C@@H](CC(C)C)C(=O)N[C@@H](Cc2ccccc2)C(=O)N[C@@H](Cc2ccccc2)CC(=O)N[C@H](CC(C)C)C(=O)N1C: PAMPA 7.9 × 10^-6 cm/s
* CC(C)C[C@@H]1NC(=O)[C@@H](C)N(C)C(=O)[C@@H]2CCCN2C(=O)[C@H](Cc2ccccc2)NC(=O)[C@H](CC(C)C)N(C)C(=O)[C@H]2CCCN2C(=O)[C@@H](CC(C)C)NC1=O: PAMPA 6.8 × 10^-6 cm/s
* CC(C)C[C@@H]1NC(=O)[C@@H](C)N(C)C(=O)[C@@H]2CCCN2C(=O)[C@H](Cc2ccccc2)NC(=O)CN(Cc2ccccc2)C(=O)[C@H]2CCCN2C(=O)CN(Cc2ccccc2)C1=O: PAMPA 1.2 × 10^-6 cm/s
* CCCN1CC(=O)N(C)[C@H](CC(C)C)C(=O)N[C@@H](Cc2ccccc2)CC(=O)N2CCC[C@H]2C(=O)N(C)[C@H](CC(C)C)C(=O)N[C@@H](Cc2ccccc2)C(=O)N2CCC[C@H]2C1=O: PAMPA 2.5 × 10^-6 cm/s
* CC(C)C[C@H]1NC(=O)[C@@H](C)N(C)C(=O)[C@H](Cc2ccccc2)NC(=O)CN(Cc2ccccc2)C(=O)[C@H]2CCCN2C(=O)CN(Cc2ccccc2)C1=O: PAMPA 0.6 × 10^-6 cm/s
* CCCN1CC(=O)N(C)[C@H](CC(C)C)C(=O)N(C)[C@@H](CC(C)C)C(=O)N2CCC[C@@H]2C(=O)N(C)[C@@H](CC(C)C)C(=O)N[C@@H](Cc2ccccc2)C(=O)N2CCC[C@H]2C1=O: PAMPA 11 × 10^-6 cm/s

The last 2 entries again:

| structure (SMILES) | PAMPA (10^-6 cm/s) |
|---|---|
| CC(C)C[C@H]1NC(=O)[C@@H](C)N(C)C(=O)[C@H](Cc2ccccc2)NC(=O)CN(Cc2ccccc2)C(=O)[C@H]2CCCN2C(=O)CN(Cc2ccccc2)C1=O | 0.6 |
| CCCN1CC(=O)N(C)[C@H](CC(C)C)C(=O)N(C)[C@@H](CC(C)C)C(=O)N2CCC[C@@H]2C(=O)N(C)[C@@H](CC(C)C)C(=O)N[C@@H](Cc2ccccc2)C(=O)N2CCC[C@H]2C1=O | 11 |

Data: CycPeptMPDB; original report Townsend et al. 2020, doi:10.26434/chemrxiv.13335941.v1.